{
  "source": "patent US20260108496A1",
  "about": "“METHODS FOR REPROGRAMING EXHAUSTED T CELLS AND BOOSTING IMMUNE CHECKPOINT BLOCKADE THERAPY FOR CANCER” (Ohio State Innovation Foundation, priority 2022, published 2026)",
  "molecules": {"B1": {"name": "BMP2: natural BMP (Bone Morphogenetic Protein) ligand (protein, UniProt P12643 283-396, looked up)", "Bone morphogenetic protein 2": "QAKHKQRKRLKSSCKRHPLYVDFSDVGWNDWIVAPPGYHAFYCHGECPFPLADHLNSTNHAIVQTLVNSVNSKIPKACCVPTELSAISMLYLDENEKVVLKNYQDMVVEGCGCR", "modifications": "Bone morphogenetic protein 2", "notes": "natural BMP (Bone Morphogenetic Protein) ligand"}},
  "key": {"[1]": {"test_system": "human CD8 T cells", "assay": "treatment of human CD8 T cells with BMP ligands under chronic strong TCR stimulation", "type": "cell-based", "details": "day 21", "source_text": "BMP ligands can signal through type 1 (BMPR1, ACVR1) or type 2 receptors (BMPR2, ACVR2), which typically form heterotetramers upon ligand binding. Once heterotetramers are activated by ligands, they phosphorylate SMAD1/5/8 that binds to SMAD4 and translocates to nucleus and bind to target genes. […] To determine whether and which natural BMP ligand(s) recapitulate BMP4-agonist-mediated effects on dysfunctional CD8 T cells, we treated human CD8 T cells with different BMP ligands, including BMP2, BMP4, BMP6, and BMP10 under chronic strong TCR stimulation (FIG. 33)."}, "[2]": {"test_system": "SMAD1/5/8 phosphorylation", "details": "cited from earlier work"}},
  "data": [
    {"molecule": "B1", "values": [
      {"measurement": "expression levels of terminal exhaustion-associated molecules (CD39, CD101, CD103)", "setting": "[1]", "result": "significantly higher expression levels"},
      {"measurement": "activation of SMAD1/5/8 phosphorylation", "setting": "[2]", "result": "strong"}
    ]}
  ]
}
